Experimental data as given in patent publication US20050176755A1, “Aza-bridged-bicyclic amino acid derivatives as alpha4 integrin antagonists” (priority 2003, published 2005).

By UniProt entry, the sequences of proteins in these tests, tags left out. Residues count along the entry.
UniProt P05556, 21-798 limits assumed: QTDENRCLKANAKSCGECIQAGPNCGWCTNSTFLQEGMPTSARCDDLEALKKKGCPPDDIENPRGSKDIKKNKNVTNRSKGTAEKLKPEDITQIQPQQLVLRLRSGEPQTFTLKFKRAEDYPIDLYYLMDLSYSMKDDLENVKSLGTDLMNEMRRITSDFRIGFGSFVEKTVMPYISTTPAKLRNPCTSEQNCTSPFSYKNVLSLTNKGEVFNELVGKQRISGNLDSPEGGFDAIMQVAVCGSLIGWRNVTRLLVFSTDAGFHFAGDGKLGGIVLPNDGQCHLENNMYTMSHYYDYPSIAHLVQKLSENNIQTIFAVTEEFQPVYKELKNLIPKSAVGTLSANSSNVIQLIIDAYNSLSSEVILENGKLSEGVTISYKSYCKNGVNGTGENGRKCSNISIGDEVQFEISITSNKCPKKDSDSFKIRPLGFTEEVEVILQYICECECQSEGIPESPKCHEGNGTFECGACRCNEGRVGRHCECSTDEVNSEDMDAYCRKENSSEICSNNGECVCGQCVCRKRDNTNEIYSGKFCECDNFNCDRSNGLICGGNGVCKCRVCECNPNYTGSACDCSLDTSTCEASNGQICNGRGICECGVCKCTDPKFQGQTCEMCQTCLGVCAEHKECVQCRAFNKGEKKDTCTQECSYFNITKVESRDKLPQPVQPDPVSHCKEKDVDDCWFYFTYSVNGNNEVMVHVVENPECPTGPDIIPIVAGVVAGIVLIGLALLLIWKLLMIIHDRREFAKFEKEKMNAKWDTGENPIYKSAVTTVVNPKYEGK
UniProt P13612, 34-1032 limits assumed: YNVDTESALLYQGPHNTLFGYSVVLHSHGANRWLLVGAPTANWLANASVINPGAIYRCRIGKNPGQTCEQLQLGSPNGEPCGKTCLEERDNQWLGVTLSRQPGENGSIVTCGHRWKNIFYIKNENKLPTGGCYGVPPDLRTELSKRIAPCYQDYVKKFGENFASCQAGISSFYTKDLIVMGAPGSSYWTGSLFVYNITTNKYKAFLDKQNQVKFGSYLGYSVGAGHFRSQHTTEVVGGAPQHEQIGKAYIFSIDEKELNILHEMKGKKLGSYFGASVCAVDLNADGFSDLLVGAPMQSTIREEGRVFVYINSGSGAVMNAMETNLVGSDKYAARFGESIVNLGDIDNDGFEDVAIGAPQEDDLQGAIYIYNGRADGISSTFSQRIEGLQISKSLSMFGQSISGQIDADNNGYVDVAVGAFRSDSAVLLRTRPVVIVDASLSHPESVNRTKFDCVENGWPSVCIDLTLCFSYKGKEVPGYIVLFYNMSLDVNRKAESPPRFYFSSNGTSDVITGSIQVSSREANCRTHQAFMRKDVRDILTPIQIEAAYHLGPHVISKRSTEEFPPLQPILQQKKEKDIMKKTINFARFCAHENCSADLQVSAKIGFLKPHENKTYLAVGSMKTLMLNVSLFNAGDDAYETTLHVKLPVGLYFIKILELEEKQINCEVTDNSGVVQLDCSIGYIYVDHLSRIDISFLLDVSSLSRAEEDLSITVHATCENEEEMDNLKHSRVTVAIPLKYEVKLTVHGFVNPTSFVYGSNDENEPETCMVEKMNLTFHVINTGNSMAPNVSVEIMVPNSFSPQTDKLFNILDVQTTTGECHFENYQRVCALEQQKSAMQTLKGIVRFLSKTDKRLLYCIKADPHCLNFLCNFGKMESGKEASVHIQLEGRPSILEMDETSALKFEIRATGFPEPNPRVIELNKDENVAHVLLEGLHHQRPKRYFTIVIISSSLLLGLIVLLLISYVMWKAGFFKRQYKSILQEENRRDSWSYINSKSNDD
UniProt P26010, 20-798 limits assumed: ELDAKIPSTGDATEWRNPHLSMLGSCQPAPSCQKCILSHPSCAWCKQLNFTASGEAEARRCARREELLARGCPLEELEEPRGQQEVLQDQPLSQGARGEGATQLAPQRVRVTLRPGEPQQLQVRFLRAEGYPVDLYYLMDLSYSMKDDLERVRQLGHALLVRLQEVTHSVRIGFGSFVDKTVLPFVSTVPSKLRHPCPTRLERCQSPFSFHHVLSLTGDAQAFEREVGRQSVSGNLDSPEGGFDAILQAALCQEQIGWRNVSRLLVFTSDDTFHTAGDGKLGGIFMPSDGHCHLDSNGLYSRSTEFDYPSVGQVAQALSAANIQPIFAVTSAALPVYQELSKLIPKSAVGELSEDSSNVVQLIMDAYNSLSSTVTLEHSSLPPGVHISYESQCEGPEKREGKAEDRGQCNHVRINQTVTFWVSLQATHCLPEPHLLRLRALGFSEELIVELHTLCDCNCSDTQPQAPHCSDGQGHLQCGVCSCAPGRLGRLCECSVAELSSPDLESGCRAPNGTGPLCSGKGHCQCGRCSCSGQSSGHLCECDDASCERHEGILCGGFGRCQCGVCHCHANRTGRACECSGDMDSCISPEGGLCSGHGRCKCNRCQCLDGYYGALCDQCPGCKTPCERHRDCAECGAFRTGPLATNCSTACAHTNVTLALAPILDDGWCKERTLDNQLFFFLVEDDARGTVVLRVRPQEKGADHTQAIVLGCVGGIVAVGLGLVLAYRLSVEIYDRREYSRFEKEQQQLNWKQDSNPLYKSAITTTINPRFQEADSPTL

Columns and labels:
α4β1 = α4β1 (Homo sapiens, UniProt P05556+P13612); experiment: Ramos Cell Adhesion Assay (α4β1 Mediated Adhesion/VCAM-1); settings: read-out: α4β1 IC50; Ramos cells, adhesion to recombinant hVCAM-1; tested form: TFA
human α4β7 = human α4β7 (Homo sapiens, UniProt P13612+P26010); experiment: α4β7-K562 Cell Adhesion Assay (α4β7 Mediated Adhesion/VCAM-1); settings: read-out: α4β7 IC50; K562 cells expressing human α4β7, adhesion to recombinant hVCAM-1; tested form: TFA

IC50 (α4β1): 9 nM | IC50 (human α4β7): 30 nM
SMILES: CC(C)(C)OC(=O)NCCC(=O)N1C2CCC(CC2)C1C(=O)N[C@@H](Cc1ccc(NC(=O)c2c(Cl)cncc2Cl)cc1)C(=O)O (some centres unmarked)
